Like-named read-outs stand apart in the source and are kept apart here.
Legend:
primary rat microglia [1] = system: primary rat microglia
primary rat microglia [2] = system: primary rat microglia; remark: listed apart in the source
primary rat microglia [3] = test: Cell toxicity (dead cells, size <150 μm2) in LPS assay; conditions: read-out: Cell Toxicity IC50 (uM) [LPS assay]
primary rat microglia [4] = test: Cell toxicity (dead cells, size <150 μm2) in coated fibrin (cFib) assay; conditions: read-out: Cell Toxicity IC50 (uM) [cFib assay];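 on Fibrin % cell toxicity: share of dead cells sized under 150 µm2 at 10 µM in fibrin-stimulated microglia HTS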

## Hexylene Glycol
Primary rat microglia [1]; rat
  Fibrin % cell toxicity: 1%
Primary rat microglia [2]; rat
  LPS % cell toxicity: 0%

## Medroxyprogesterone [reference compound]
Primary rat microglia [1]; rat
  Fibrin % cell toxicity: 2%
Primary rat microglia [2]; rat
  LPS % cell toxicity: 0%
Primary rat microglia [3]
  IC50: 17 µM
Primary rat microglia [4]
  IC50: > 20 µM

## Oxolamine Citrate
Primary rat microglia [1]
  Fibrin % cell toxicity: 1%
Primary rat microglia [2]
  LPS % cell toxicity: 0%

## Spiramycin
Primary rat microglia [1]
  Fibrin % cell toxicity: 1%
Primary rat microglia [2]
  LPS % cell toxicity: 0%
